The values below come from ChEMBL document CHEMBL1129309, “Asymmetric syntheses, opioid receptor affinities, and antinociceptive effects of 8-amino-5,9-methanobenzocyclooctenes, a new class of structural analogues of the morphine alkaloids” (J Med Chem, 1996).

The test system of this test is Mus musculus. The experiment in a line: Percent activity against delta selective antinociception when given icv injection at a dose of 30 nmol 20 min before mouse tail flick test. On the technique in general: In hot-plate and tail-flick tests a longer latency is read as antinociception.

`CN(C(=O)Cc1ccc(Cl)c(Cl)c1)C1CCCCC1N1CCCC1` (stereo unspecified) had an Activity of 57%.
